Reference: ChEMBL document CHEMBL1152171 (Bioorg Med Chem Lett, 2008)

The chains behind the UniProt entries cited, without tags or fusion partners.
UniProt Q01827, whole entry: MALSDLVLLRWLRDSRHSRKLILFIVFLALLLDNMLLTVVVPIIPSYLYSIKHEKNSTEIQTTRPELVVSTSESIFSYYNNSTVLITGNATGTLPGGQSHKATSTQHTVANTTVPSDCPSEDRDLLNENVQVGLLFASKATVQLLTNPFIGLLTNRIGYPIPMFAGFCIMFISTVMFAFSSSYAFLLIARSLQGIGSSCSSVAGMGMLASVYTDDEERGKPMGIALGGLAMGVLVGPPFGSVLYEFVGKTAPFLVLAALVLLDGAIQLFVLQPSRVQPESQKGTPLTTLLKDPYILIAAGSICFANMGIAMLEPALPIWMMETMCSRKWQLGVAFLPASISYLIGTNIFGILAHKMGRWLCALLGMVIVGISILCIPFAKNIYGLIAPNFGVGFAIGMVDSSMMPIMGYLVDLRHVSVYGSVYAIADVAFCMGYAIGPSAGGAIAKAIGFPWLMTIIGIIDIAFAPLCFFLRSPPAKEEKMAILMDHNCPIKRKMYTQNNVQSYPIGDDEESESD

Target: Synaptic vesicular amine transporter (Rattus norvegicus, UniProt Q01827)
Assay: Displacement of [3H]dihydrotetrabenazine from vesicular monoamine transporter-2 in rat brain synaptosome
Format: tissue-based

## CN1[C@@H](CCc2ccccc2)CCC[C@H]1c1ccccc1
  Ki: 16.1 µM
